# Results reported in PubChem BioAssay AID1046 (PCMD, 2008).
# This is a selection; strong and weak results do not stand in their true shares. Activity calls are given as the source filed them.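 The calls were made as follows: active = inhibition at or above 40%; inactive = inhibition below 40%.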
# Target: Prothrombin (Homo sapiens) (UniProt P00734)
# Assay: human alpha-thrombin inhibitors, primary screen, counter-screen for coagulation protease inhibitor project, biochemical, 1536-well, fluorogenic AMC substrate (AID 1046);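 also: 0% = enzyme with no compound and 100% = wells without enzyme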
# Conditions: Boc-VPR-AMC fluorogenic substrate cleavage, at 5 µM, hits give high values
row,Compound,inhibition
1,O=[N+]([O-])c1ncn(CCn2cnc([N+](=O)[O-])n2)n1,inactive: -3.27%
2,O=[As](O)(c1ccccc1)c1ccc(O)cc1,inactive: -3.23%
3,C(Cc1nn[nH]n1)Cc1nn[nH]n1,inactive: -0.41%
4,Nc1ccc([As](=O)(O)c2ccc([N+](=O)[O-])cc2)cc1,inactive: -8.1%
5,O=C(OC1CN2CCC1CC2)c1cccc(Cl)c1 (centres undefined),inactive: 1.01%
6,O=C(NC1CCS(=O)(=O)C1)NP(=S)(Oc1ccccc1)Oc1ccccc1 (centres undefined),inactive: -7.77%
7,CCNC(=S)/N=C(\N)N[N+](=O)[O-],inactive: 2.25%
8,Cc1ccc(NP(=O)(Oc2cccc(C)c2)Oc2cccc(C)c2)nc1,inactive: -1%
9,CCOC(=O)NC(Sc1ccccc1)C(Cl)(Cl)Cl (centres undefined),inactive: 2.91%
10,c1ccc(-c2nn[nH]n2)c(-c2nn[nH]n2)c1,inactive: -6.89%
11,CC(=O)NC(SC(=S)N(CC(C)C)CC(C)C)C(Cl)(Cl)Cl (centres undefined),inactive: 21.8%
12,COC(=O)c1cc2c(s1)N=C(c1ccccc1)N(C)P2(=O)N1CCOCC1 (centres undefined),inactive: 0.36%
13,CCC(=O)N1C2C3N(C(=O)CC)C1C1N(C(=O)CC)C(C(N1C(=O)CC)N3C(=O)CC)N2C(=O)CC,inactive: 0.83%
14,O=c1c2cc([N+](=O)[O-])ccc2[nH]c2c([N+](=O)[O-])cc([N+](=O)[O-])cc12,inactive: -4.92%
15,CN(C)C(=O)Oc1noc2ccccc12,inactive: -2.41%
16,Cc1ccccc1OP(=O)(Nc1ccccn1)Oc1ccccc1C,inactive: -0.77%
17,CCOc1ccc(C2=NCC(CBr)S2)cc1 (centres undefined),inactive: -0.06%
18,O=P1(Nc2nc3ccc(Cl)cc3s2)COc2ccccc2O1 (centres undefined),inactive: 0.55%
19,CC(C)(C)C(=O)NC(Sc1ccccc1)C(Cl)(Cl)Cl (centres undefined),inactive: -4.06%
20,C[C@H]1OP(=O)(Oc2ccccc2)C[C@@H]2O[C@@H]21 (some centres undefined),inactive: 0.56%

row,Compound,inhibition
1,C[C@@H]1C=CCP(=O)(Oc2ccccc2)O1 (some centres undefined),inactive: -0.06%
2,CC(=O)Nc1ccc(Oc2c([N+](=O)[O-])cc([N+](=O)[O-])cc2[N+](=O)[O-])cc1,inactive: -4.65%
3,CC(=O)Nc1ccc([As](=O)(O)O)c(O)c1,inactive: -5.73%
4,NC(=O)c1cc([N+](=O)[O-])cc([N+](=O)[O-])c1N,inactive: -5.78%
5,Cc1ccc(N/C(=N/P(=O)(N2CCOCC2)N2CCOCC2)N2CCOCC2)cc1,inactive: -2.21%
6,Cc1ccc(OP(=O)(Nc2nccs2)Oc2ccc(C)cc2)cc1,inactive: -0.7%
7,COc1ccccc1OP(=O)(Nc1ccc(C)cn1)Oc1ccccc1OC,inactive: -10.6%
8,CN1CCCC(OC(=O)C(c2ccccc2)c2ccccc2)C1 (centres undefined),inactive: -3.41%
9,Clc1ccc(Cl)c(NC2=NCC(CBr)S2)c1 (centres undefined),inactive: -4.03%
10,Nc1cc(N)c2nonc2c1[N+](=O)[O-],inactive: -0.06%
11,CC(C)CC(=O)NC(Sc1ccc(Cl)cc1)C(Cl)(Cl)Cl (centres undefined),inactive: 4.36%
12,O=C(NC(Sc1ccncn1)C(Cl)(Cl)Cl)c1ccccc1 (centres undefined),inactive: -2.31%
13,Cc1c2non([O-])c-2c(C)[n+](=O)[n+]1[O-],inactive: 30.8%
14,Oc1ccccc1CNc1ccccn1,inactive: 0.24%
15,CC(=O)Nc1ccc([As](=O)(O)O)cc1,inactive: 1.87%
16,O=C(O)c1ccccc1[As](=O)(O)O,inactive: -3.36%
17,O=P(Nc1nc2ccc(Cl)cc2s1)(c1ccccc1)c1ccccc1,inactive: 3.87%
18,Cc1ccc(NP(=O)(Oc2ccccc2F)Oc2ccccc2F)nc1,inactive: 2.08%
19,Cc1cc(SC(NC(=O)c2ccc(F)cc2)C(Cl)(Cl)Cl)ncn1 (centres undefined),inactive: -7.96%
20,CCOP(=O)(Nc1ccccc1)OCC,inactive: -6.97%

row,Compound,inhibition
1,CCN(N=Nc1nonc1N)c1nonc1N,inactive: -3.24%
2,Nc1cccc2ccc([As](=O)(O)O)cc12,inactive: -4.27%
3,O=C(Nc1cc([As](=O)(O)O)ccc1O)c1ccccc1,inactive: 0.02%
4,CC(C)(C)C(=O)NC(Sc1ccncn1)C(Cl)(Cl)Cl (centres undefined),inactive: -9.88%
5,O=[N+]([O-])c1ncn(CCn2ncnc2[N+](=O)[O-])n1,inactive: -7.67%
6,O=[N+]([O-])c1cccc(NC2=NCC(CBr)S2)c1 (centres undefined),inactive: -1.12%
7,O=C(O)CNc1ccc([As](=O)(O)O)cc1,inactive: -10.5%
8,COc1ccc(C2=NCC(CBr)S2)cc1 (centres undefined),inactive: -2.01%
9,CC(=O)N1C2C3N(C(C)=O)C1C1N(C(C)=O)C(C(N1C(C)=O)N3C(C)=O)N2C(C)=O,inactive: 3.35%
10,O=[N+]([O-])c1cccc2n[nH]nc12,inactive: -0.6%
11,O=[N+]([O-])c1cc([N+](=O)[O-])c(CCNc2ccccc2)c([N+](=O)[O-])c1,inactive: 0.22%
12,CCc1nc2c(n1)c1c(non1O)c1c2no[n+]1[O-],inactive: -3.81%
13,Cc1ccc(NP(=O)(Oc2ccccc2)Oc2ccccc2)nc1,inactive: -3.76%
14,C[N+]1=C2C=CC=CC=C2SC12C([N+](=O)[O-])=CC([N+](=O)[O-])=C[C-]2[N+](=O)[O-] (centres undefined),inactive: -2.97%
15,Nc1ccc([As](=O)(O)c2ccc(N)cc2)cc1,inactive: 1.98%
16,CCN(/C(=N/P(=O)(N1CCOCC1)N1CCOCC1)N1CCOCC1)c1ccc(OC)cc1,inactive: 9.45%
17,CN(C)C(=O)OCCc1n(C)cc[n+]1C,inactive: -10.9%
18,CC(C)=N/N=C(\N)N[N+](=O)[O-],inactive: -4.77%
19,CC1CCN(C(=O)Oc2c(Cl)cc(Cl)c3cccnc23)CC1,inactive: -2.98%
